# Ab-14 light chain CDR variants: yeast mating affinities

Source: Engelhart et al. 2022 (doi:10.1038/s41597-022-01779-4), MIT Lincoln Laboratory and A-Alpha Bio; data file from the FLAb repository.

Target: peptide PDVDLGDISGINAS, taken from heptad repeat 2 (HR2) of SARS-CoV-2 spike.

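Variants in AAYL50 differ from the parent at up to three CDR positions; double and triple changes were sampled at random. The assay is AlphaSeq: two haploid yeast populations carry antibody and antigen on their surface. Mating (16 h, 30 °C) was followed by selection of diploids and sequencing of their barcodes. Scores were corrected for input abundance and mapped to Kd with protein pairs of known affinity run in the same pool. Mating was done three times.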

Parent scFv Ab-14: VH joined to VL by three GGGGS repeats. Changes lie in the light chain CDRs alone.
VH: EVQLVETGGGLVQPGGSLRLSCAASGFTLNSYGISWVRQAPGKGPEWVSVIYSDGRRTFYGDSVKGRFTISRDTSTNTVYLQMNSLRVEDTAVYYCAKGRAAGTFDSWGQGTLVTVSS
VL: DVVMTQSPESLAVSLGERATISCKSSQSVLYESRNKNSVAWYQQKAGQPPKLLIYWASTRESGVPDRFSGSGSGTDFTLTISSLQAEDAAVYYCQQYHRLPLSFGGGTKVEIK

Substitutions are numbered in sequence along the VL above, starting at 1 (not Kabat). Numbers give log10(Kd / nM), so 0 is 1 nM and 3 is 1 µM. Smaller is tighter. A mean of the replicates is given; it leaves out those without a signal. "not detected" means that the variant was in the library but no mating with the target was seen in any replicate; the authors take this as a sign of poor binding, and no number exists. Three control strains display no target. For library AAYL50, 18% of the pairings with them gave a signal, with a median of 4.19 and one signal in twenty below 2.99, so weak values seen in few replicates may be background. In this assay the parent's reference entry averaged 0.65; its copy inside this library read 1.68.

changes	mean, log10 nM	replicates with signal
V29N+S62P	not detected	0 of 3
S25N+K36R+Q96P	not detected	0 of 3
S25K+T59S+Y97D	5.31	1 of 3
E32A+R34E+L102C	4.47	3 of 3
Q27S+S62I	1.70	3 of 3
E61G+R99N+L102S	5.37	1 of 3
V29S+V39A+Q96V	not detected	0 of 3
R60L+P101T+L102E	not detected	0 of 3
S33H+S38H+E61I	3.59	3 of 3
K24H+V29N+Q95V	not detected	0 of 3
Y97C+R99V+P101T	0.96	3 of 3
Y31D+W56Y+S58K	0.99	3 of 3
K24D+Q95V+Y97L	4.11	1 of 3
E61A+P101Q	1.60	3 of 3
S25N+K36I+V39D	1.26	3 of 3
S28H+L30G+R99A	1.01	3 of 3
Q95V+Q96M+L100P	4.25	1 of 3
S58F+E61A+L102K	2.19	3 of 3
S26N+W56I	3.88	1 of 3
S25E+K36T+A40R	5.12	3 of 3
A40F+Y97N	2.20	1 of 3
S26Q+R60E+L100S	4.39	2 of 3
E32V+Y97M+S103W	not detected	0 of 3
Y31L+T59L+L100Y	2.26	3 of 3
S26N+Q27L+T59V	not detected	0 of 3
A57C+S58F+R99I	4.18	2 of 3
K24S+S58K+L102C	1.88	3 of 3
K24I+R34L+W56L	1.29	3 of 3
Q27A+V29S+Y97S	not detected	0 of 3
R34K+S38Y+S62C	2.72	2 of 3
N37M+A57Q	not detected	0 of 3
S28T+V39L+A40K	3.84	1 of 3
S26F+V29G+Y31V	0.97	3 of 3
S28R+S33W+R34K	2.64	1 of 3
S25P+V39Q+A57N	4.74	2 of 3
Q27H+S28F+S33Y	3.48	3 of 3
W56F+Q95P+S103L	not detected	0 of 3
V39A+Y97L+S103N	4.58	3 of 3
K36T+N37T+R60W	1.64	3 of 3
L30K+L100Y	2.94	2 of 3

Further variants, results first:

mean, log10 nM	replicates with signal	changes
0.62	3 of 3	Y31P+P101F+L102F
not detected	0 of 3	S33G+L100W+L102R
4.34	2 of 3	S26P+N35C+V39Y
0.70	3 of 3	S25H+Q27E+S33D
1.95	3 of 3	E32R+N35G+N37S
not detected	0 of 3	K24Q+K36C+S38W
3.73	3 of 3	E32C+K36N+Y97F
4.94	1 of 3	Y31E+A57P+S58A
not detected	0 of 3	S25K+S33L+Q95H
3.70	3 of 3	V29T+Y31C+Q96W
1.65	3 of 3	Y31W+S58H
2.05	3 of 3	K24R+N37W+V39L
not detected	0 of 3	N37R+V39P+Y97P
2.97	3 of 3	S28Y+Q96W+Y97L
2.83	3 of 3	K36P+S58W+E61C
4.83	2 of 3	V29M+S62H+Y97C
0.00	3 of 3	R34V+K36Q+W56S
4.16	2 of 3	S25K+L30V+K36V
4.29	1 of 3	V39Q+L102S+S103I
4.44	2 of 3	N35I+Y97W
0.76	3 of 3	S33L+R34N+W56R
4.63	1 of 3	S38Y+V39Q+Q96G
0.55	3 of 3	Y31L+H98Q+P101M
2.10	3 of 3	V29D+H98V+L102Y
0.49	3 of 3	L30P+E32Q+S33D
4.35	1 of 3	K24I+E32G+S38M
not detected	0 of 3	Q27G+E61Y+R99Y
not detected	0 of 3	K24Q+V39P+T59S
not detected	0 of 3	S38W+S58P+R99S
4.56	1 of 3	S38G+V39Y+T59M
3.19	1 of 3	L30Y+V39Y+S103I
not detected	0 of 3	S38R+A40W+Y97Q
4.63	2 of 3	L30T+A40H+P101S
not detected	0 of 3	S33V+N35M+Y97H
1.89	3 of 3	K36E+N37M+E61W
3.89	1 of 3	R34E+K36V+Y97C
1.77	3 of 3	E32P+N35A+P101D
not detected	0 of 3	N35E+S62G+L102R
0.15	3 of 3	W56E+S62W+P101A
not detected	0 of 3	S26Y+S28C+H98V

The first 9 entries again:

changes	mean, log10 nM	replicates with signal
V29N+S62P	not detected	0 of 3
S25N+K36R+Q96P	not detected	0 of 3
S25K+T59S+Y97D	5.31	1 of 3
E32A+R34E+L102C	4.47	3 of 3
Q27S+S62I	1.70	3 of 3
E61G+R99N+L102S	5.37	1 of 3
V29S+V39A+Q96V	not detected	0 of 3
R60L+P101T+L102E	not detected	0 of 3
S33H+S38H+E61I	3.59	3 of 3